These are literature values, as cited in PMC7459591 (Marine Drugs, 2020).

Protein sequences, listed by entry. Tags and fused reporters are not part of them.
UniProt P08510, whole entry: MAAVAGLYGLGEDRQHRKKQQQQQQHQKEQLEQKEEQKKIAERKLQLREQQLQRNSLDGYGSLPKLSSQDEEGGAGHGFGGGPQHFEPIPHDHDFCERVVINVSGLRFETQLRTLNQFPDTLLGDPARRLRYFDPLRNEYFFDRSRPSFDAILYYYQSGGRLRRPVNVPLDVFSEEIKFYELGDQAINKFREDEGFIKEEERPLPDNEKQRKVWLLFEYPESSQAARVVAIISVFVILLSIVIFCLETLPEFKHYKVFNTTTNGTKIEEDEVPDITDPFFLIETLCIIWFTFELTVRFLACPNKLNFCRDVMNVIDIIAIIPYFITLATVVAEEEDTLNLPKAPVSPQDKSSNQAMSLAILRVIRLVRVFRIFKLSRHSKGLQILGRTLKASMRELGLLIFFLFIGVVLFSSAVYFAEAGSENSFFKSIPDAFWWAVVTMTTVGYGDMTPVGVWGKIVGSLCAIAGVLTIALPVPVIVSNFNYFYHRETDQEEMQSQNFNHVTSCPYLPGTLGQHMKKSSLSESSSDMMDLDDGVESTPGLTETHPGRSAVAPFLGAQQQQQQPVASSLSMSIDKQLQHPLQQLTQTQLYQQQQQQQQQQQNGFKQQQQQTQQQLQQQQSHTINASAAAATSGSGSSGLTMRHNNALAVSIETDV

One may read the Kd as the concentration at which binding is half-saturated.

In this data set the target is Shaker potassium channel (Drosophila melanogaster) (UniProt P08510). The settings on record: cited from earlier work.

Conorfamide-Sr3 (from UniProt P0DM28): the Kd was 2700 nM.
